Results as given in USRE48599E1, “Compositions comprising TLIA-Ig fusion protein for the regulation of T regulatory cells, and methods for their use” (University of Miami, priority 2013, dated 2021).

Tested on: FoxP3+CD4+ Treg cells
Assay: Combination of TNFRSF25 agonist and IL-2: Treg expansion in peripheral blood
Format: in vivo, wild type mice
Description: In a first set of experiments, wild type mice were treated with low-dose IL-2 (300,000 units/m^2), control (IgG), TL1A-Ig (0.5 mg/kg), or a combination treatment with TL1A-Ig and a single injection of very low-dose IL-2 (30,000 units/m^2) or with a combination treatment with TL1A-Ig and a single injection of low dose IL-2 (300,000 units/m^2). The frequency of CD4+FoxP3+ cells out of total CD4+ cells was monitored in the peripheral blood on the indicated days.
In a second set of experiments, wild type mice were treated with low-dose IL-2 (300,000 units/m2), control (IgG), 4C12 antibody (0.4 mg/kg), or with a combination treatment with 4C12 antibody and a single injection of low dose IL-2 (300,000 units/m2). The frequency of CD4+ FoxP3+ cells out of total CD4+ cells was monitored in the peripheral blood on the indicated days.

Low dose IL-2: interleukin-2, low dose 300,000 units/m^2
less than 20%: percentage of FoxP3+ Treg cells (out of total CD4+ cells) (5 days post-treatment, peripheral blood, FIG. 16) | frequency of Treg cells (6 days after treatment, peripheral blood, FIG. 16) | frequency of Treg cells, of all CD4+ CD3+ peripheral blood cells (Six days after treatment, FIG. 17)
